This passage reports HER2 level % of control results from PubChem BioAssay AID645 (SRMLSC, 2007).

The chains behind the UniProt entries cited, without tags or fusion partners.
UniProt P04626, whole entry: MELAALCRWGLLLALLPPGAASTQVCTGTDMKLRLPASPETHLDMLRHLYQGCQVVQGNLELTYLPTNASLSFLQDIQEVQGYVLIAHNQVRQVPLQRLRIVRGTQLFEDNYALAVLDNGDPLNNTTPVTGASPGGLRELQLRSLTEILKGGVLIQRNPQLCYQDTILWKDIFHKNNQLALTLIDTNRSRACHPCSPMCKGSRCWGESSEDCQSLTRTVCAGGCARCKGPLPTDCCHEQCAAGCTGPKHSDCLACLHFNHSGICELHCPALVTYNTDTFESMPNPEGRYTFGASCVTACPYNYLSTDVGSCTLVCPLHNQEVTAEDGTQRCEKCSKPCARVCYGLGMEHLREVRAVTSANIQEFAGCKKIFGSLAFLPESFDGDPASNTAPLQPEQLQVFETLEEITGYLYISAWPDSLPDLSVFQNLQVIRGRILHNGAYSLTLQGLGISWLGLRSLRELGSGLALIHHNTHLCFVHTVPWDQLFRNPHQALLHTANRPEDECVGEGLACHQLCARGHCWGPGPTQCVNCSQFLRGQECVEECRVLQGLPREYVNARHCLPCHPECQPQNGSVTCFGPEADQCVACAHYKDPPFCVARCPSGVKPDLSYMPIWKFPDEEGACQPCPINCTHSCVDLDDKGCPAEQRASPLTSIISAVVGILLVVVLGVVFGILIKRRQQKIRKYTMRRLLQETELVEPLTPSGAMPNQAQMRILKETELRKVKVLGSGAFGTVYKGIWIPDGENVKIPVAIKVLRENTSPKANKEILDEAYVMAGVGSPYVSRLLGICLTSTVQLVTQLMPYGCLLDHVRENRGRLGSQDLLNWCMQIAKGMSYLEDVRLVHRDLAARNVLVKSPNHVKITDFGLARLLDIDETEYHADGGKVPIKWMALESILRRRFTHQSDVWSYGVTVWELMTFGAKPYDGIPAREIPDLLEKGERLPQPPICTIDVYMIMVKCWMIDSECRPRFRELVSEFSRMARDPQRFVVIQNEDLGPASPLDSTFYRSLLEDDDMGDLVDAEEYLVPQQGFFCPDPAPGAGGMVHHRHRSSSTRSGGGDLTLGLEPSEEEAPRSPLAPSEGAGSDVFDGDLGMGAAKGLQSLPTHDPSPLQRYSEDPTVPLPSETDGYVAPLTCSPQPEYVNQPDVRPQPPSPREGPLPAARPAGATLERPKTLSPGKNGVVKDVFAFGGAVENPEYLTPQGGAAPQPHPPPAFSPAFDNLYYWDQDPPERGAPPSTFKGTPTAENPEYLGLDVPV

This is a selection; strong and weak results do not stand in their true shares. Some of these compounds have results that are not shown, active ones among them. The source made the active and inactive calls.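 How the source made its calls: active means HER2 level under 5% of the carrier-only control; inconclusive means no clear call, values can overlap the other calls; inactive means the rest.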

The target in this assay is Receptor tyrosine-protein kinase erbB-2 (Homo sapiens) (UniProt P04626). The experiment in a line: reducers of endogenous HER2 protein levels – SKBR-3 cells, AlphaScreen, 66K library, primary screen (AID 645).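 Further: 100% = DMSO carrier and 0% = 500 nM PU-H71 HSP90 inhibitor; lower value means stronger loss of Her2 protein.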 The note with it: SKBR-3 HER2 protein level, 18-24 h, at 10 µM, hits give low values. (In Alpha technology, singlet oxygen from a donor bead excites a nearby acceptor bead.)
On to `CN(C)c1cccc(C(=O)NCC2(N(C)C)CCCCC2)c1`, for which the HER2 level % of control was active: -21.8%.
For the compound `O=C(OC1CN2CCC1CC2)C(CO)(c1ccccc1)c1ccccc1` (configuration not stated), the HER2 level % of control was inactive: 87.4%.
